Measurements: patent EP4585587A1, “PROPIONIC ACID DERIVATIVE AND USE THEREOF IN MEDICINE” (priority 2022, dated 2024)
Counter-ions that a name gives are not always drawn. Like-named read-outs stand apart in the source and are kept apart here.

Amino acid sequences for entries named in this document (tags omitted). Residues count along the entry.
UniProt P13612, whole entry, looked up: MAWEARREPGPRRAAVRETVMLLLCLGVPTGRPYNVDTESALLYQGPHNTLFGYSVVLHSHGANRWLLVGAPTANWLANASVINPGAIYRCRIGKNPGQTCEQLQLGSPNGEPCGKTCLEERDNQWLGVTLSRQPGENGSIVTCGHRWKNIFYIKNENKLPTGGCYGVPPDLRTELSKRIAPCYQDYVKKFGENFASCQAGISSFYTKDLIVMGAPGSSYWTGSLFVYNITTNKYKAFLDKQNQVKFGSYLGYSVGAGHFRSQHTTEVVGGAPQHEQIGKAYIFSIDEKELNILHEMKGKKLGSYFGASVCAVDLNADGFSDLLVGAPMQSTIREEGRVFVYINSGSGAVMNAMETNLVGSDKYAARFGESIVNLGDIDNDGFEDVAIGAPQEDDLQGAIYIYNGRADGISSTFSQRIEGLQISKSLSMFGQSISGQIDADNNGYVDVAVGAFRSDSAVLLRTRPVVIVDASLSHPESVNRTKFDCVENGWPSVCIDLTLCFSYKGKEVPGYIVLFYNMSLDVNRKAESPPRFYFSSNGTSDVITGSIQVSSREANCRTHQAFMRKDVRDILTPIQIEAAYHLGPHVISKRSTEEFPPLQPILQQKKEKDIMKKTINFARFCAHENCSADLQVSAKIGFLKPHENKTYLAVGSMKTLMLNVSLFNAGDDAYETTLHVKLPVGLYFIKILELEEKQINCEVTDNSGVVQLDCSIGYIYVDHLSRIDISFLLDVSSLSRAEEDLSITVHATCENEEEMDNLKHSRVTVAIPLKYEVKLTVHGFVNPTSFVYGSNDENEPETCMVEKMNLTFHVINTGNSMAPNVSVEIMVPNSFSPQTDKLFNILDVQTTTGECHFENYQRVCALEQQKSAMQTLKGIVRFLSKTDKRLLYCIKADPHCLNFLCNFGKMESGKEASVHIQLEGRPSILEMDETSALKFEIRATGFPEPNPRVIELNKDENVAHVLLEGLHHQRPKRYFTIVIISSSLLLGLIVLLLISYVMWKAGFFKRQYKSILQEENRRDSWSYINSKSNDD
UniProt P13612, 34-1032 limits assumed: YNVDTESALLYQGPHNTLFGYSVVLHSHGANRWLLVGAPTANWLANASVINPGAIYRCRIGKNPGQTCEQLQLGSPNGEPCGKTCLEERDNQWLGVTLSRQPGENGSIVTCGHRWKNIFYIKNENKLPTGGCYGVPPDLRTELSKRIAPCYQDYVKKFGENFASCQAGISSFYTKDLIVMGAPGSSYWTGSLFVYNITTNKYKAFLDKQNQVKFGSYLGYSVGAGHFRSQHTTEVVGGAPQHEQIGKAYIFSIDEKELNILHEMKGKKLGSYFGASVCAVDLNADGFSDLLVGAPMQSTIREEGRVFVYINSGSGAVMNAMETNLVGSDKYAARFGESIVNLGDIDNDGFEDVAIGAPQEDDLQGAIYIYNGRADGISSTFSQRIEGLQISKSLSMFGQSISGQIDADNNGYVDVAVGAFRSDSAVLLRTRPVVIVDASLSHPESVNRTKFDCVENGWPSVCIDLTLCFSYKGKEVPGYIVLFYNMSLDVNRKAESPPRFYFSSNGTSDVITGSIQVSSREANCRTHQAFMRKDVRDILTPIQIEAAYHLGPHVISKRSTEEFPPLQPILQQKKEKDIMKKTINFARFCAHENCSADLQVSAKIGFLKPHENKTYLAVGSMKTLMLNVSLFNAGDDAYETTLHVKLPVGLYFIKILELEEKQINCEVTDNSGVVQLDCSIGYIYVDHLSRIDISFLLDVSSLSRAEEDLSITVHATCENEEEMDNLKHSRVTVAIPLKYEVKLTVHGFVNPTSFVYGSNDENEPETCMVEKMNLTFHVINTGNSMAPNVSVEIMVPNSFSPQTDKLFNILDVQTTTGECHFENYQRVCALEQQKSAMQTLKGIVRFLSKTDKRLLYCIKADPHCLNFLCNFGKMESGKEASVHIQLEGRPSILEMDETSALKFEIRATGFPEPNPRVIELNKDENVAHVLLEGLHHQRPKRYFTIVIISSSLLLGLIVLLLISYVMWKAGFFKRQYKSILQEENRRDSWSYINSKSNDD
UniProt P26010, 20-798 limits assumed: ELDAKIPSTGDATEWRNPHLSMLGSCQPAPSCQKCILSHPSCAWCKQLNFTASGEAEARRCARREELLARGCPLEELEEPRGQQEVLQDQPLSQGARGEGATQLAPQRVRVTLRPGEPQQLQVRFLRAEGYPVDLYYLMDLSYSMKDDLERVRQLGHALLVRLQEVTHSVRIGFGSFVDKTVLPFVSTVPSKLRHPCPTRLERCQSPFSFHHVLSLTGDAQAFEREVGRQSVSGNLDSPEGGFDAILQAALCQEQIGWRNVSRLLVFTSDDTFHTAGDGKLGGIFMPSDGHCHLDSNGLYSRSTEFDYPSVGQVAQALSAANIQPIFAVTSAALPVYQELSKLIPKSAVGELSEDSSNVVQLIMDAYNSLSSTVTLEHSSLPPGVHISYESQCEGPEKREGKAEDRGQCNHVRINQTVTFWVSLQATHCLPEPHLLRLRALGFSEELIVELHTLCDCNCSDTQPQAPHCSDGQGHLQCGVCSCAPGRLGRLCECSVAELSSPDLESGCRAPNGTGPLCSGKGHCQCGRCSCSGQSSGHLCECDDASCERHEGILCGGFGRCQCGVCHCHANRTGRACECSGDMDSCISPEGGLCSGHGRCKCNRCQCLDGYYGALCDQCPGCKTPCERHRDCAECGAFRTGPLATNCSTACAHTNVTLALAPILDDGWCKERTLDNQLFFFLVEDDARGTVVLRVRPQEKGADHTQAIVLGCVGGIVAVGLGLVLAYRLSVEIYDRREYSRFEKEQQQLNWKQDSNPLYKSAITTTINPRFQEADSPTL
UniProt P05556, whole entry, looked up: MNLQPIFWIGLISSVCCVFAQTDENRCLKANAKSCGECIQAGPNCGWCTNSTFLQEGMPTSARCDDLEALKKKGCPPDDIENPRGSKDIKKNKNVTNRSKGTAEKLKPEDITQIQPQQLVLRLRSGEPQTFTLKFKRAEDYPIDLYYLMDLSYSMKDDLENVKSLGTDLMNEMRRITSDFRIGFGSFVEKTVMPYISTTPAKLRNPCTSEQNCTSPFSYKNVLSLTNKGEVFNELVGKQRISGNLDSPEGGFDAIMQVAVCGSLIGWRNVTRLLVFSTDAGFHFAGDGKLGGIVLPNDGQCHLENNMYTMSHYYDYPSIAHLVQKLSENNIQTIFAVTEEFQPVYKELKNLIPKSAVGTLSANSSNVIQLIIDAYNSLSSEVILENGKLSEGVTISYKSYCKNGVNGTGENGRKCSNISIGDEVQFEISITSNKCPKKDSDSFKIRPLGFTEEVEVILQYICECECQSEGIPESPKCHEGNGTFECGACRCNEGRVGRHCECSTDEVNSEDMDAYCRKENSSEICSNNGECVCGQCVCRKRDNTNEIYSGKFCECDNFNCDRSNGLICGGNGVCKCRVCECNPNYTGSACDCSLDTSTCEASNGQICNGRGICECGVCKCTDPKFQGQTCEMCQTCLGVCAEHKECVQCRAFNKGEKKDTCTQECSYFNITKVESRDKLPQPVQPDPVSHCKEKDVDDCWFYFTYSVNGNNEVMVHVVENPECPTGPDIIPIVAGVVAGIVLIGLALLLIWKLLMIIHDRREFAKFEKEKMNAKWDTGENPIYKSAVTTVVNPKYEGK

Key:
integrin α4β7 = integrin α4β7 (Homo sapiens, UniProt P13612+P26010); assay: Integrin α4β7 cell adhesion assay (RPMI8866 cells on MAdCAM-1)
integrin α4β1 = integrin α4β1 (Homo sapiens, UniProt P05556+P13612); assay: Integrin α4β1-mediated cell adhesion assay (Jurkat cells on VCAM); format: cell-based; conditions: tested form: TFA; for IC50: read-out: Jurkat (α4β1)/VCAM-1 IC50, Jurkat cells, VCAM coated plate; for α4β1/α4β7: selectivity ratio of Jurkat (α4β1)/VCAM-1 IC50 to RPMI-8866 (α4β7)/MadCAM-1 IC50
[1] = read-out: RPMI-8866 (α4β7)/MadCAM-1 IC50, MAdCAM-1 coated plate, numeric value or bound, tested form: TFA
[2] = read-out: RPMI-8866 (α4β7)/MadCAM-1 IC50, MAdCAM-1 coated plate, reported as class symbol, tested form: TFA

| Structure (SMILES) | IC50 (integrin α4β7; [1]) [nM] | IC50 (integrin α4β1) [nM] | α4β1/α4β7 (integrin α4β1) | IC50 (integrin α4β7; [2]) [nM] |
| --- | --- | --- | --- | --- |
| CC#Cc1cc(-c2c(C)cccc2C)c(F)c(C(CC(=O)O)NC(=O)C(CC(C)C)n2cc(CCN3CC4CC3CO4)c(C(F)(F)F)cc2=O)c1F (single isomer, unassigned) [Trifluoroacetate salt of compound 17-2] | < 1 | > 100 | 165 | – |
| Cc1cc(F)cc(C)c1-c1cc(C(CC(=O)O)NC(=O)C(CC(C)C)n2cc(C3CCN(CC4CC4(F)F)CC3)c(C(F)(F)F)cc2=O)cc2c1CCC2 (stereo not drawn) | – | > 300 | 106 | < 10 |
| Cc1cc(F)cc(C)c1-c1cc(C(CC(=O)O)NC(=O)C(CC(C)C)n2cc(CC3CN(C(C)C)C3)c(C(F)(F)F)cc2=O)cc2c1CCC2 (stereo not drawn) | < 0.5 | > 100 | 454 | – |
| CC#Cc1cc(-c2c(C)cccc2C)c(F)c(C(CC(=O)O)NC(=O)C(CC(C)C)n2cc(CCN3CC4CC3CO4)c(C(F)(F)F)cc2=O)c1F (single isomer, unassigned) [Trifluoroacetate salt of compound 16-2] | < 1 | > 200 | 308 | – |
| Cc1cccc(C)c1-c1cc(C(CC(=O)O)NC(=O)C(CC(C)C)n2cc(CCN(C)C)c(C(F)(F)F)cc2=O)cc2c1CCC2 (stereo not drawn) | – | > 500 | 648 | < 10 |
| COc1cc(C)c(-c2cc(C(CC(=O)O)NC(=O)C(CC(C)C)n3cc(CCN(C)C)c(C(F)(F)F)cc3=O)cc3c2CCC3)c(C)c1 (stereo not drawn) | < 0.5 | > 100 | 1420 | – |
| CCN(CC)CCc1cn(C(CC(C)C)C(=O)NC(CC(=O)O)c2cc3c(c(-c4c(C)cc(F)cc4C)c2)CCC3)c(=O)cc1C(F)(F)F (stereo not drawn) | < 0.5 | > 30 | 269 | – |
| CC#Cc1cc(-c2c(C)cc(OC)cc2C)c(F)c(C(CC(=O)O)NC(=O)C(CC(C)C)n2cc(CCN(C)C)c(C(F)(F)F)cc2=O)c1F (stereo not drawn) | < 0.5 | > 100 | 269 | – |
